In ChEMBL document CHEMBL3046404, “The cytotoxic effects of diketopiperaizes against Leishmania donovani promastigotes and amastigotes” (Med Chem Res, 2013):

The compounds below were run on Leishmania donovani (assay: Antileishmanial activity against amastigote form of Leishmania donovani MHOH/IN/1983/AG83 infected BALB/c mouse peritoneal macrophages after 48 hr by Geimsa staining method).
Type: functional, organism-based
`O=C1CN(c2cccc(Cl)c2)C(=O)CN1c1cccc(Cl)c1` was tested, and the Activity was “Dose-dependent effect”.
`O=C1CN(c2ccccc2Cl)C(=O)CN1c1ccccc1Cl` was tested, and the Activity was “Dose-dependent effect”.
In the case of `O=C1CN(C2CCCCC2)C(=O)CN1C1CCCCC1`, the Activity is reported as “Dose-dependent effect”.
